This is an account of results in patent publication US8575186B2, “Epiminocycloalkyl[b] indole derivatives as serotonin sub-type 6 (5-HT6) modulators and uses thereof” (Albany Molecular Research, Inc., priority 2009, dated 2013).

Amino acid sequences for entries named in this document (tags omitted).
UniProt P50406, whole entry: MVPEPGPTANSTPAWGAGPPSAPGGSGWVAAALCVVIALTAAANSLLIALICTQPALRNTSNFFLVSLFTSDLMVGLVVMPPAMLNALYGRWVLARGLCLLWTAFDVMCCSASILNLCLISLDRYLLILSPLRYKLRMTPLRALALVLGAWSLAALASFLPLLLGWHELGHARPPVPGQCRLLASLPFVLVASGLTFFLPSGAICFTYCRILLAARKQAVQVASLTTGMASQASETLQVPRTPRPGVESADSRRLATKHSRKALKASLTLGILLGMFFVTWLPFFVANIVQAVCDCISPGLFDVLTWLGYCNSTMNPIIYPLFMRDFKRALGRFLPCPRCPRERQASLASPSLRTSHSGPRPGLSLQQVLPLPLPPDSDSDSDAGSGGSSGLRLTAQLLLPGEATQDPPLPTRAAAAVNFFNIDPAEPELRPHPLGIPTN

The target of one experiment is human 5-HT6 receptor (Homo sapiens (Human), UniProt P50406). In words: radioligand binding assay (SPA format), [N-methyl-3H]-LSD. The conditions noted are these: read-out: human 5HT6 Ki.
By Ki is commonly meant the dissociation constant of the complex between target and ligand, obtained from inhibition or displacement. Consider `Cn1c2c(c3cc(S(=O)(=O)n4c5c(c6ccccc64)CCC5)ccc31)C1CCC(C2)N1` (stereo not drawn) [Example 128], for which the Ki amounted to 24 nM. Consider `Cn1c2c(c3cc(S(=O)(=O)c4cncc5ccccc45)ccc31)C1CCC(C2)N1` (stereo not drawn) [Example 130], for which the Ki came to 3.6 nM. Take `Cn1c2c(c3cc(S(=O)(=O)c4ccccc4)cc(O)c31)C1CCC(C2)N1` (stereo not drawn) [Example 143]: the Ki came to 3.4 nM. For `COc1cc(S(=O)(=O)c2cncc(Cl)c2)cc2c3c(n(C)c12)CC1CCC3N1` (stereo not drawn) [Example 144], the Ki stood at 21 nM. The same measure, in the same setting: in the case of `COc1cc(S(=O)(=O)c2cccc(O)c2)cc2c3c(n(C)c12)CC1CCC3N1` (stereo not drawn) [Example 146] it was 2.3 nM; in that of `Cn1c2c(c3cc(S(=O)(=O)c4ccccc4)cc(OCCO)c31)C1CCC(C2)N1` (stereo not drawn) [Example 151], 44 nM; in that of `COCCOc1cc(S(=O)(=O)c2ccccc2)cc2c3c(n(C)c12)CC1CCC3N1` (stereo not drawn) [Example 152], 9.2 nM. Consider `Cn1c2c(c3cc(S(=O)(=O)c4cccc(C(F)(F)F)c4)ccc31)C1CCC(C2)N1` (stereo not drawn) [Example 159], for which the Ki was found to be 1.4 nM. Turning to `Cn1c2c(c3cc(S(=O)(=O)c4cccc(C(F)(F)F)c4)ccc31)C1CCC(C2)N1` (stereo not drawn) [Example 160], the Ki stood at 4.5 nM. On the same count and under the same terms, with `Cn1c2c(c3cc(S(=O)(=O)c4ccc5[nH]ccc5c4)ccc31)C1CCC(C2)N1` (stereo not drawn) [Example 161] the figure was 0.37 nM. As for `Cn1c2c(c3cc(S(=O)(=O)c4ccc5[nH]ccc5c4)ccc31)C1CCC(C2)N1` (stereo not drawn) [Example 162], the Ki was 0.28 nM. In the case of `Cn1c2c(c3cc(S(=O)(=O)c4c[nH]c5ccccc45)ccc31)C1CCC(C2)N1` (stereo not drawn) [Example 163], the inhibition constant Ki turned out to be 1.2 nM. `Cn1c2c(c3cc(S(=O)(=O)c4c[nH]c5ccccc45)ccc31)C1CCC(C2)N1` (stereo not drawn) [Example 164]: the Ki stood at 0.74 nM. As for `Cn1c2c(c3cc(S(=O)(=O)c4csc5ccccc45)ccc31)C1CCC(C2)N1` (stereo not drawn) [Example 171], the inhibition constant Ki came out at 0.36 nM.

Take `CCn1ccc2cc(S(=O)(=O)c3ccc4c(c3)c3c(n4C)CC4CCC3N4)ccc21` (stereo not drawn) [Example 173]: the Ki worked out at 15 nM.

For the molecule `CCn1ccc2cc(S(=O)(=O)c3ccc4c(c3)c3c(n4C)CC4CCC3N4)ccc21` (stereo not drawn) [Example 174], the Ki was 5.1 nM. Take `Cn1c2c(c3cc(S(=O)(=O)c4ccc(C(F)(F)F)cc4)ccc31)C1CCC(C2)N1` (stereo not drawn) [Example 176]: the Ki is 46 nM. `Cn1c2c(c3cc(S(=O)(=O)c4cncc5ccccc45)ccc31)C1CCC(C2)N1` (stereo not drawn) [Example 179]: the Ki was determined as 3.7 nM. As to `Cn1c2c(c3cc(S(=O)(=O)n4ccc5ccc(F)cc54)ccc31)C1CCC(C2)N1` (stereo not drawn) [Example 187], the Ki stood at 1.1 nM. Take `Cn1c2c(c3cc(S(=O)(=O)n4ccc5ccccc54)ccc31)C1CCC(C2)N1` (stereo not drawn) [Example 189]: the Ki came to 1.2 nM. For `Cn1c2c(c3cc(S(=O)(=O)n4ccc5ccccc54)ccc31)C1CCC(C2)N1` (stereo not drawn) [Example 190], the Ki was 0.68 nM.

For the molecule `Cn1c2c(c3cc(S(=O)(=O)n4ccc5cc(F)ccc54)ccc31)C1CCC(C2)N1` (stereo not drawn) [Example 191], the Ki came to 1.9 nM. For the molecule `Cn1c2c(c3cc(S(=O)(=O)n4ccc5cc(F)ccc54)ccc31)C1CCC(C2)N1` (stereo not drawn) [Example 192], the Ki is 1.1 nM.

For the molecule `Cn1c2c(c3cc(S(=O)(=O)c4ccccc4)cc(O)c31)C1CCC(C2)N1` (stereo not drawn) [Example 203], the inhibitory constant (Ki) was determined as 2.9 nM.

As for `Cn1c2c(c3cc(S(=O)(=O)c4ccccc4)cc(O)c31)C1CCC(C2)N1` (stereo not drawn) [Example 204], the inhibitory constant (Ki) was found to be 4.8 nM. Turning to `Cn1c2c(c3cc(S(=O)(=O)c4cccc(F)c4)cc(O)c31)C1CCC(C2)N1` (stereo not drawn) [Example 205], the Ki was determined as 1.8 nM. Same read-out and setting: in the case of `Cn1c2c(c3cc(S(=O)(=O)c4cccc(F)c4)cc(O)c31)C1CCC(C2)N1` (stereo not drawn) [Example 206] it was 1.6 nM. On to `Cn1c2c(c3cc(S(=O)(=O)c4cccc(Cl)c4)cc(O)c31)C1CCC(C2)N1` (stereo not drawn) [Example 207], for which the Ki was determined as 0.91 nM.

Regarding `Cn1c2c(c3cc(S(=O)(=O)c4cccc(Cl)c4)cc(O)c31)C1CCC(C2)N1` (stereo not drawn) [Example 208], the Ki is 0.69 nM. With `COc1cc(S(=O)(=O)c2ccccc2)cc2c3c(n(C)c12)CC1CCC3N1` (stereo not drawn) [Example 212], the inhibition constant Ki was found to be 0.57 nM. On to `COc1cc(S(=O)(=O)c2ccccc2)cc2c3c(n(C)c12)CC1CCC3N1` (stereo not drawn) [Example 213], for which the inhibition constant (Ki) turned out to be 4.8 nM. As to `COc1cc(S(=O)(=O)c2ccccc2F)cc2c3c(n(C)c12)CC1CCC3N1` (stereo not drawn) [Example 217], the Ki is 4.7 nM. Regarding `COc1cc(S(=O)(=O)c2ccccc2F)cc2c3c(n(C)c12)CC1CCC3N1` (stereo not drawn) [Example 218], the Ki came to 0.46 nM.

Consider `COc1cc(S(=O)(=O)c2cccc(Cl)c2)cc2c3c(n(C)c12)CC1CCC3N1` (stereo not drawn) [Example 219], for which the Ki came to 1.7 nM. Same read-out and setting: in the case of `COc1cc(S(=O)(=O)c2cccc(Cl)c2)cc2c3c(n(C)c12)CC1CCC3N1` (stereo not drawn) [Example 220] it was 0.5 nM.

On to `COc1cc(S(=O)(=O)c2ccccc2)cc2c3c(n(C)c12)CC1CCC3N1C` (stereo not drawn) [Example 227], for which the Ki came out at 0.68 nM. Turning to `Cc1cc(S(=O)(=O)n2ccc3ccccc32)cc2c3c(n(C)c12)CC1CCC3N1` (stereo not drawn) [Example 228], the Ki came to 0.96 nM.

`Cc1cc(S(=O)(=O)n2ccc3ccccc32)cc2c3c(n(C)c12)CC1CCC3N1` (stereo not drawn) [Example 229]: the Ki was 1.8 nM. In the case of `COc1cc(S(=O)(=O)n2cc(C)c3ccccc32)cc2c3c(n(C)c12)CC1CCC3N1` (stereo not drawn) [Example 230], the Ki amounted to 1.3 nM. The same measure, in the same setting: with `COc1cc(S(=O)(=O)n2cc(C)c3ccccc32)cc2c3c(n(C)c12)CC1CCC3N1` (stereo not drawn) [Example 231] the figure was 0.31 nM. The same measure, in the same setting: with `COCCOc1cc(S(=O)(=O)c2ccccc2)cc2c3c(n(C)c12)CC1CCC3N1` (stereo not drawn) [Example 236] the figure was 18 nM; with `COCCOc1cc(S(=O)(=O)c2ccccc2)cc2c3c(n(C)c12)CC1CCC3N1` (stereo not drawn) [Example 237], 7.1 nM; with `COc1cc(S(=O)(=O)n2ccc3ccc(F)cc32)cc2c3c(n(C)c12)CC1CCC3N1` (stereo not drawn) [Example 238], 0.85 nM. For the molecule `COc1cc(S(=O)(=O)n2ccc3ccc(F)cc32)cc2c3c(n(C)c12)CC1CCC3N1` (stereo not drawn) [Example 239], the Ki was determined as 0.43 nM.

The same experiment, now with this note: read-out: human 5HT6 Ki; human 5-HT6 receptor membranes, 10 nM [3H]-LSD.
Take `Cn1c2c(c3cc(S(=O)(=O)c4ccc(C(F)(F)F)cc4)ccc31)C1CCC(C2)N1` (stereo not drawn) [Example 175]: the Ki worked out at 151 nM.
